“And” between values parts separate entries of the source, which are not always exact repeats. Identical values can stand only once. Like-named read-outs stand apart in the source and are kept apart here.
Experiments:
[1] = Octanol/water partition coefficient determination; format: physicochemical; conditions: octanol/purified water, room temperature, 24 hours
[2] = Stratum corneum/water partition coefficient determination; format: physicochemical, human
[3] = PBS pH 7.4 with 30% DMSO, 37 °C, pseudo first order
[4] = fresh rat plasma, 37 °C

Substance	Partition coefficient (LogP octanol/water) [1]	Partition coefficient (LogK SC/ 5% PG water) [2]	Partition coefficient (LogK SC/ 5% PG water) ([2]; stratum corneum / 5% propylene glycol in water, 24 hrs)	Hydrolysis in PBS (half life in hours) [3] [min]	Bioconversion in plasma (half life in min) [4]
Ethylene Glycol Diclofenac Ester [ED]	3.83	1.74	–	–	–
Glycerol Diclofenac Ester [GD]	–	–	1.56	1550	11 min and 11.3 min

— paper PMC4772728 (Drug development and industrial pharmacy, 2013)
